Test results as given in patent publication US20090253669A1, “Substituted Sulfonamide Compounds” (GRUENENTHAL GmbH, priority 2008, published 2009).

Protein sequences, listed by entry. Tags and fused reporters are not part of them.
UniProt P35372, whole entry, looked up: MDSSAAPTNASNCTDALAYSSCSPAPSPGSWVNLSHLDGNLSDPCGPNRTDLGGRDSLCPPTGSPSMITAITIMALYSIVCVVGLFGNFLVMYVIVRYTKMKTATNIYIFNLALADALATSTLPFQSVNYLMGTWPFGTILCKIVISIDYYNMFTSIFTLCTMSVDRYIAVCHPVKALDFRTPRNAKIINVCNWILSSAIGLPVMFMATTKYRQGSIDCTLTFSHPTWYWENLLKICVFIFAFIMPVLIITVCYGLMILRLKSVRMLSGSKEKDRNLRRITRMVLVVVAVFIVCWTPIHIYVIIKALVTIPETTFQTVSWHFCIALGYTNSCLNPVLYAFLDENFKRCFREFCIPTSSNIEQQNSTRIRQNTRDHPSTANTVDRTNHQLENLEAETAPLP

Target: human μ opiate receptor (Homo sapiens, UniProt P35372)
Assay: [3H]-naloxone displacement, SPA, membranes of CHO-K1 cells
Conditions: 1 μM test substance; inhibition of specific binding of 1 nmol/l [3H]-naloxone

Compound	μ opioid receptor [1 μM] % inhibition [%]
COc1cc(C)c(S(=O)(=O)N(C)CCOCC(=O)N(C)CCC2CCC(CCc3ccccc3)(N(C)C)CC2)c(C)c1 (stereo not shown) [Compound 52, N-(2-(4-(dimethylamino)-4-phenethylcyclohexyl)ethyl)-2-(2-(4-methoxy-N,2,6-trimethylphenylsulfonamido)ethoxy)-N-methylacetamide]	33
CN1CCN(C2(Cc3ccccc3)CCN(C(=O)COCC3CCc4ccccc4N3S(=O)(=O)c3ccc(Cl)c(Cl)c3)CC2)CC1 (stereo not shown) [Compound 108, 1-(4-benzyl-4-(4-methylpiperazin-1-yl)piperidin-1-yl)-2-((1-(3,4-dichlorophenylsulfonyl)-1,2,3,4-tetrahydroquinolin-2-yl)methoxy)ethanone]	8
Cc1cc(S(=O)(=O)N2CCCCC2CCC(=O)N(C)CCC2CCC(CCc3ccccc3)(N3CCCC3)CC2)c(C)cc1Cl (stereo not shown) [Compound 131, 3-(1-(4-chloro-2,5-dimethylphenylsulfonyl)piperidin-2-yl)-N-methyl-N-(2-(4-phenethyl-4-(pyrrolidin-1-yl)cyclohexyl)ethyl)propanamide]	33
COc1cc(C)c(S(=O)(=O)N(C)CCOCC(=O)NC2CCC(CCc3ccccc3)(N(C)C)CC2)c(C)c1 (stereo not shown) [Compound 7, N-(4-(dimethylamino)-4-phenethylcyclohexyl)-2-(2-(4-methoxy-N,2,6-trimethylphenylsulfonamido)ethoxy)acetamide]	55
COc1cc(C)c(S(=O)(=O)N2CCCCC2COCC(=O)N(C)CC2CCC(c3ccccc3)(N3CCCC3)CC2)c(C)c1 (stereo not shown) [Compound 66, 2-((1-(4-methoxy-2,6-dimethylphenylsulfonyl)piperidin-2-yl)methoxy)-N-methyl-N-((4-phenyl-4-(pyrrolidin-1-yl)cyclohexyl)methyl)acetamide]	31
COc1cc(C)c(S(=O)(=O)N(C)CCOCC(=O)NC2CCC(c3cccc(F)c3)(N(C)C)CC2)c(C)c1 (stereo not shown) [Compound 6, N-(4-(dimethylamino)-4-(3-fluorophenyl)cyclohexyl)-2-(2-(4-methoxy-N,2,6-trimethylphenylsulfonamido)ethoxy)acetamide]	98
Cc1cc(S(=O)(=O)N2CCCCC2CCC(=O)N(C)CC2CCC(Cc3ccccc3)(N3CCCC3)CC2)c(C)cc1Cl (stereo not shown) [Compound 129, N-((4-benzyl-4-(pyrrolidin-1-yl)cyclohexyl)methyl)-3-(1-(4-chloro-2,5-dimethylphenylsulfonyl)piperidin-2-yl)-N-methylpropanamide]	9
COc1cc(C)c(S(=O)(=O)N2CCCCC2COCC(=O)N2CCC(Cc3ccccc3)(N(C)C)CC2)c(C)c1 (stereo not shown) [Compound 65, 1-(4-benzyl-4-(dimethylamino)piperidin-1-yl)-2-((1-(4-methoxy-2,6-dimethylphenylsulfonyl)piperidin-2-yl)methoxy)ethanone]	19
COc1cc(C)c(S(=O)(=O)N(C)CCOCC(=O)NC2CCC(Cc3ccccc3)(N3CCCC3)CC2)c(C)c1 (stereo not shown) [Compound 170, N-(4-benzyl-4-(pyrrolidin-1-yl)cyclohexyl)-2-(2-(4-methoxy-N,2,6-trimethylphenylsulfonamido)ethoxy)acetamide]	29
CN(CC1CCC(Cc2ccccc2)(N2CCCC2)CC1)C(=O)COCC1CCc2ccccc2N1S(=O)(=O)c1ccc(Cl)c(Cl)c1 (stereo not shown) [Compound 127, N-((4-benzyl-4-(pyrrolidin-1-yl)cyclohexyl)methyl)-2-((1-(3,4-dichlorophenylsulfonyl)-1,2,3,4-tetrahydroquinolin-2-yl)methoxy)-N-methylacetamide]	17
O=C(CC1c2ccccc2CCN1S(=O)(=O)c1ccc(Cl)c(Cl)c1)NC1CCC(Cc2ccccc2)(N2CCCCCC2)CC1 (stereo not shown) [Compound 16, N-(4-(azepan-1-yl)-4-benzylcyclohexyl)-2-(2-(3,4-dichlorophenylsulfonyl)-1,2,3,4-tetrahydroisoquinolin-1-yl)acetamide]	30
CN1CCN(C2(Cc3ccccc3)CCN(C(=O)CC(NS(=O)(=O)c3ccc4ccccc4c3)c3ccccc3)CC2)CC1 (stereo not shown) [Compound 118, N-(3-(4-benzyl-4-(4-methylpiperazin-1-yl)piperidin-1-yl)-3-oxo-1-phenylpropyl)naphthalene-2-sulfonamide]	18
Cc1ccccc1CC1(N(C)C)CCC(NC(=O)CC2c3ccccc3CCN2S(=O)(=O)c2ccc(Cl)c(Cl)c2)CC1 (stereo not shown) [Compound 12, 2-(2-(3,4-dichlorophenylsulfonyl)-1,2,3,4-tetrahydroisoquinolin-1-yl)-N-(4-(dimethylamino)-4-(2-methylbenzyl)cyclohexyl)acetamide]	37
COc1cc(C)c(S(=O)(=O)N2CCCCC2COCC(=O)N(C)CC2CCC(CCc3ccccc3)(N3CCCC3)CC2)c(C)c1 (stereo not shown) [Compound 51, 2-((1-(4-methoxy-2,6-dimethylphenylsulfonyl)piperidin-2-yl)methoxy)-N-methyl-N-((4-phenethyl-4-(pyrrolidin-1-yl)cyclohexyl)methyl)acetamide]	46
CN(C)C1(Cc2ccccc2)CCN(C(=O)CC2CCCCN2S(=O)(=O)c2cccc(C(F)(F)F)c2)CC1 (stereo not shown) [Compound 97, 1-(4-benzyl-4-(dimethylamino)piperidin-1-yl)-2-(1-(3-(trifluoromethyl)phenylsulfonyl)piperidin-2-yl)ethanone]	31
CN(CC1CCC(Cc2ccccc2)(N2CCCC2)CC1)C(=O)CC1CCCCN1S(=O)(=O)c1cccc(C(F)(F)F)c1 (stereo not shown) [Compound 94, N-((4-benzyl-4-(pyrrolidin-1-yl)cyclohexyl)methyl)-N-methyl-2-(1-(3-(trifluoromethyl)phenylsulfonyl)piperidin-2-yl)acetamide]	5
O=C(COCC1CCCCN1S(=O)(=O)c1c(Cl)cc(Cl)cc1Cl)NC1CCC(c2ccccc2)(N2CCCC2)CC1 (stereo not shown) [Compound 142, N-(4-phenyl-4-(pyrrolidin-1-yl)cyclohexyl)-2-((1-(2,4,6-trichlorophenylsulfonyl)piperidin-2-yl)methoxy)acetamide]	98
O=C(CC1c2ccccc2CCN1S(=O)(=O)c1ccc(Cl)c(Cl)c1)NC1CCC(Cc2ccccc2)(N2CCCCC2)CC1 (stereo not shown) [Compound 15, N-(4-benzyl-4-(piperidin-1-yl)cyclohexyl)-2-(2-(3,4-dichlorophenylsulfonyl)-1,2,3,4-tetrahydroisoquinolin-1-yl)acetamide]	15
CN(CCC1CCC(c2ccccc2)(N2CCCC2)CC1)C(=O)CC1CCCCN1S(=O)(=O)c1cccc(C(F)(F)F)c1 (stereo not shown) [Compound 106, N-methyl-N-(2-(4-phenyl-4-(pyrrolidin-1-yl)cyclohexyl)ethyl)-2-(1-(3-(trifluoromethyl)phenylsulfonyl)piperidin-2-yl)acetamide]	78
CN1CCN(C2(Cc3ccccc3)CCC(CN(C)C(=O)COCCN(C)S(=O)(=O)c3c(Cl)cc(Cl)cc3Cl)CC2)CC1 (stereo not shown) [Compound 186, N-((4-benzyl-4-(4-methylpiperazin-1-yl)cyclohexyl)methyl)-N-methyl-2-(2-(2,4,6-trichloro-N-methylphenylsulfonamido)ethoxy)acetamide]	9
COc1cc(C)c(S(=O)(=O)N(C)CCOCC(=O)N2CCC(Cc3ccccc3)(N(C)C)CC2)c(C)c1 [Compound 63, N-(2-(2-(4-benzyl-4-(dimethylamino)piperidin-1-yl)-2-oxoethoxy)ethyl)-4-methoxy-N,2,6-trimethylbenzenesulfonamide]	28
CN(CCCC1CCC(Cc2ccccc2)(N2CCCC2)CC1)C(=O)CC(NS(=O)(=O)c1ccc2ccccc2c1)c1ccccc1 (stereo not shown) [Compound 74, N-(3-(4-benzyl-4-(pyrrolidin-1-yl)cyclohexyl)propyl)-N-methyl-3-(naphthalene-2-sulfonamido)-3-phenylpropanamide]	25
COc1cc(C)c(S(=O)(=O)N2CCCCC2COCC(=O)N(C)CCC2CCC(Cc3ccccc3)(N3CCCC3)CC2)c(C)c1 (stereo not shown) [Compound 68, N-(2-(4-benzyl-4-(pyrrolidin-1-yl)cyclohexyl)ethyl)-2-((1-(4-methoxy-2,6-dimethylphenylsulfonyl)piperidin-2-yl)methoxy)-N-methylacetamide]	41
COc1cc(C)c(S(=O)(=O)N2CCCCC2COCC(=O)N(C)CCCC2CCC(c3ccccc3)(N3CCCC3)CC2)c(C)c1 (stereo not shown) [Compound 32, 2-((1-(4-methoxy-2,6-dimethylphenylsulfonyl)piperidin-2-yl)methoxy)-N-methyl-N-(3-(4-phenyl-4-(pyrrolidin-1-yl)cyclohexyl)propyl)acetamide]	66
CN1CCN(C2(Cc3ccccc3)CCC(CN(C)C(=O)COCC3CCCCN3S(=O)(=O)c3c(Cl)cc(Cl)cc3Cl)CC2)CC1 (stereo not shown) [Compound 162, N-((4-benzyl-4-(4-methylpiperazin-1-yl)cyclohexyl)methyl)-N-methyl-2-((1-(2,4,6-trichlorophenylsulfonyl)piperidin-2-yl)methoxy)acetamide]	42
CN1CCN(C2(c3cccc(F)c3)CCN(C(=O)CC(NS(=O)(=O)c3ccc4ccccc4c3)c3ccccc3)CC2)CC1 (stereo not shown) [Compound 120, N-(3-(4-(3-fluorophenyl)-4-(4-methylpiperazin-1-yl)piperidin-1-yl)-3-oxo-1-phenylpropyl)naphthalene-2-sulfonamide]	35
O=C(COCC1CCCN1S(=O)(=O)c1c(Cl)cc(Cl)cc1Cl)NC1CCC(c2ccccc2)(N2CCOCC2)CC1 (stereo not shown) [Compound 164, N-(4-morpholino-4-phenylcyclohexyl)-2-((1-(2,4,6-trichlorophenylsulfonyl)pyrrolidin-2-yl)methoxy)acetamide]	85
COc1cc(C)c(S(=O)(=O)N2CCCCC2COCC(=O)NC2CCC(c3ccccc3)(N3CCOCC3)CC2)c(C)c1 (stereo not shown) [Compound 158, 2-((1-(4-methoxy-2,6-dimethylphenylsulfonyl)piperidin-2-yl)methoxy)-N-(4-morpholino-4-phenylcyclohexyl)acetamide]	63
